Experiment: Tryptophan quenching assay with dibrominated lipid LUVs
Type: physicochemical
Settings: 5 μM peptide or BSA, peptide-to-lipid ratio of 62.5, 0-30% brominated lipid, Stern-Volmer plot; mean of three independent analyses
Procedure: Large unilamellar vesicles (LUVs) were prepared using methods previously described ([14]). Briefly, 1-palmitoyl-2-oleoyl-sn-glycero-3-phosphoethanolamine (POPE) and 1-palmitoyl-2-oleoyl-sn-glycero-3-phospho-(1′-rac-glycerol) (POPG) (Avanti Polar Lipids) were combined in a 3:1 ratio, respectively, in chloroform and dried to a film before water washing and lyophilizing into a powder. This powder was resuspended in Tris-Cl buffer (10 mM Tris, 10 mM NaCl, pH 7), freeze-thawed 5× (dry ice – 50 °C water bath) and extruded through a mini-extruder fitted with a 0.2 μm Whatman Nuclepore polycarbonate membrane filter (Cytiva) at least 15× to form LUVs. Where applicable, 1-palmitoyl-2-(6,7-dibromo)stearoyl-sn-glycero-3-phosphocholine (PC-Br ([6], [7])) or 1-palmitoyl-2-(11,12-dibromo)stearoyl-sn-glycero-3-phosphocholine (PC-Br ([11], [12])) (Avanti Polar Lipids) were substituted for POPE at the given percentages and incorporated into LUVs as described.
Brominated lipid-containing LUVs (0%, 10%, 20%, and 30%) were combined with 5 μM peptide and tryptophan emission fluorescence was recorded from 300 to 400 nm using a 280 nm excitation wavelength. Fluorescence spectra were plotted and the area under the curve was used to generate a Stern-Volmer plot of initial fluorescence/quenched fluorescence (Fo/F) against percentage brominated lipid. […]

Bovine serum albumin [BSA, reference compound]
Tryptophan fluorescence quenching by PC-Br(6,7)-containing LUVs: little to no quenching | Tryptophan fluorescence quenching by PC-Br(11,12)-containing LUVs (depth of insertion): little to no quenching
